{"source": "paper PMC11969438", "about": "“Albumin-targeted oxaliplatin(IV) prodrugs bearing STING agonists” (Inorganic Chemistry Frontiers, 2025)", "key": {"[1]": {"experiment": "Hematological analysis after long-term treatment", "conditions": "72 h after the fourth dose", "procedure": "Mice were kept in groups of four per cage with sterilized paper-based environmental enrichment and food and water ad libitum, under pathogen-free conditions and a controlled environment with a 12 h light–dark cycle. Syngeneic models of colorectal carcinoma were generated via subcutaneous injection of CT-26 cells (0.5 × 10^6 cells in 50 μL of serum-free RPMI-1640 medium) into the right flank of 8–12 weeks old BALB/c mice. […] All animals were euthanized 24 h after the second dose. […] To determine the anticancer efficacy of the investigated compounds, treatment started 4 d after tumor implantation, when all tumors were measurable (>25 mm^3) using a twice-weekly treatment scheme for two weeks. Tumor size was determined daily via manual caliper measurement. The tumor volume was calculated as tumor volume = (length × diameter × diameter)/2. The overall condition, shape, and activity of the animals were assessed daily. […]"}, "[2]": {"tested_on": "THP1-Dual, HCT116, HCT116/OxR and CT-26 cells", "experiment": "MTT-based cell viability assay, 72 h, statements over all investigated cell lines", "set-up": "species or system human and murine", "conditions": "HCT116 and CT-26 cells", "procedure": "Cell models were seeded (2–2.5 × 10^3 cells per well) in 96-well plates. After 24 h of recovery, the compounds were applied at the concentrations indicated in triplicate. Cell viability was determined after 72 h of continuous drug incubation using an MTT-based cell viability assay (EZ4U, Biomedica, Vienna, Austria) according to the manufacturer's recommendations. Absorbance was measured at 450 nm (vs. 620 nm as reference) using a multimode microplate reader (Tecan Spark, Zurich, Switzerland). Half-maximal inhibitory concentrations (IC50 values) were derived via interpolation from dose–response curves, modeled with the four-parameter logistic (4PL) nonlinear regression model in GraphPad Prism (La Jolla, CA, USA) from at least three independent experiments. Drug interaction dynamics between oxaliplatin and MSA-2 were established using the ZIP synergy scoring model of SynergyFinder (v3.14).[53]"}}, "data": [{"molecule": "O=C1[O][Pt]2([NH][C@@H]3CCCC[C@H]3[NH]2)[O]C1=O", "note": "[oxaliplatin]", "values": [{"measurement": "RBC toxicity", "setting": "[1]", "result": "Distinct RBC toxicity"}, {"measurement": "cytotoxic activity", "setting": "[2]", "result": "low μM range"}]}]}
